{"sequences": {"note": "The chains behind the UniProt entries cited, without tags or fusion partners.", "UniProt P08183, whole entry": "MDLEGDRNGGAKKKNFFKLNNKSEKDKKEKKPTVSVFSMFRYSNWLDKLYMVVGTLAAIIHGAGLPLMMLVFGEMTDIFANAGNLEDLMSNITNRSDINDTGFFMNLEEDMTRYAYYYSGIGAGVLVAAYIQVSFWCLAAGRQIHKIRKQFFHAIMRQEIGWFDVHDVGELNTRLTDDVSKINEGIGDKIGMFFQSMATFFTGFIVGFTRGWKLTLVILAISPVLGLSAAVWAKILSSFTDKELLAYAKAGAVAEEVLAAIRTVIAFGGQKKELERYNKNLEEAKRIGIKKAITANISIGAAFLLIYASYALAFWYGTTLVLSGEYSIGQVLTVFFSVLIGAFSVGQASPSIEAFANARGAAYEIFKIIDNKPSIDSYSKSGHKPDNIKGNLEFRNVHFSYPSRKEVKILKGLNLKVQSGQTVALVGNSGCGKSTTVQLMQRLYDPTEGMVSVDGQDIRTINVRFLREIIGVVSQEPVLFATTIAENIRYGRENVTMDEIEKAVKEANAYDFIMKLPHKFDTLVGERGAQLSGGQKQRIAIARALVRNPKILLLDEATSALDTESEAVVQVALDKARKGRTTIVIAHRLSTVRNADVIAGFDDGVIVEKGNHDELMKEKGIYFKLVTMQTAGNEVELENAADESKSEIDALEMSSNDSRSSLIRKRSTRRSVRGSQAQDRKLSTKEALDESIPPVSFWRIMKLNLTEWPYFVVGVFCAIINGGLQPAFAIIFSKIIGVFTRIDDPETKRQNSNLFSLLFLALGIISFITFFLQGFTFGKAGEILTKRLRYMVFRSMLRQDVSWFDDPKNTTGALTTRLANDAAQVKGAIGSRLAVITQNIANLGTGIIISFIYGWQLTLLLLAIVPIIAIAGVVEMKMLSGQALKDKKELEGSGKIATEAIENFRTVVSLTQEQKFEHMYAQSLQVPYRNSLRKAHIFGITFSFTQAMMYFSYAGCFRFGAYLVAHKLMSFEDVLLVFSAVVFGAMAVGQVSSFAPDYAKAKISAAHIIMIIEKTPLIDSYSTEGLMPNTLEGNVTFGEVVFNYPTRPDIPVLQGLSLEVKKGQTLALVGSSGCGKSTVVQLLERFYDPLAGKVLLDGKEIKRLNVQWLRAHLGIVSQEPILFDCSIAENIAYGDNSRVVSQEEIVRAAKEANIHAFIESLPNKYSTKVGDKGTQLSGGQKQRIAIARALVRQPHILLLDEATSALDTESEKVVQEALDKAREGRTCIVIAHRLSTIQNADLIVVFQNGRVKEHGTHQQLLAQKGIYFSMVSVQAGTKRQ"}, "source": "patent US20090111836A1", "about": "“Angular Pyranocoumarins, Process for Preparation and Uses Thereof” (CITY UNIVERSITY OF HONG KONG, priority 2007, published 2009)", "target": "P-gp (Homo sapiens, UniProt P08183)", "assay": "MDR1 reactivity shift assay (UIC2 binding to P-gp), HepG2-DR", "details": "control agents, concentration not given"}
{"substance": "sodium vanadate", "values": [{"measurement": "Cellular fluorescence (binding of UIC2 to P-gp)", "value": "decreased"}]}
